Values after ≈ are worked out from the molar mass of the structure shown.

In test [1] the test system is MDRPA. The format is cell-based, Pseudomonas aeruginosa. Particulars: 8 µM peptide. The procedure: (§1) We assessed the antibiofilm activity of the peptides by determining their minimum biofilm eradication concentration (MBEC) and minimum biofilm inhibition concentration (MBIC) against drug-resistant bacteria, including MDRPA and MRSA, as previously described. A 96-well plate containing a subculture of 1 × 10^6 CFU/200 μL of bacteria was incubated overnight at 37 °C with or without peptides to test for biofilm inhibition and eradication. The untreated culture served as the negative control, and LL-37 was used as the control peptide.

The test system of test [2] is four Gram-positive and four Gram-negative bacteria. Format: cell-based. As to conditions: over the eight strains of Table 2. The protocol:
(§2) Peptides were assessed for their antibacterial activity against four Gram-positive and four Gram-negative bacteria, including drug-resistant strains, in accordance with Clinical and Laboratory Standards Institute (CLSI) guidelines. The minimum inhibitory concentration (MIC) was determined using a microtiter broth dilution method. All bacterial strains were incubated overnight at 37 °C. Cultured bacteria were then diluted 10-fold in Muller–Hinton Broth (MHB) medium (Difco, Detroit, MI, USA) and incubated for 3 h to reach mid-log phase. Following the establishment of mid-log phase cultures, bacteria were inoculated into sterile 96-well plates containing serially diluted peptides. The MIC was defined as the lowest concentration of peptides that prevented observable turbidity after incubation of the plates at 37 °C for 18 to 24 h.

In test [3] the test system is E. coli (KCTC 1682). The format is cell-based, Escherichia coli. Particulars: CLSI broth dilution, MHB, 37 °C, 18 to 24 h. The procedure: as §2
A general note: Broth dilution looks for growth in wells or tubes with falling amounts of substance.

The subject of test [4] is MRSA. Format: cell-based, Staphylococcus aureus. Particulars: 4 µM peptide. The procedure:
as §1

For test [5], the system named is B. subtilis (KCTC 3068). Format: cell-based, Bacillus subtilis. As to conditions: CLSI broth dilution, MHB, 37 °C, 18 to 24 h. The procedure:
as §2

For test [6], the system named is S. typhimurium (KCTC 1926). The format is cell-based, Salmonella typhimurium. As to conditions: CLSI broth dilution, MHB, 37 °C, 18 to 24 h. The protocol:
as §2

The test system of test [7] is S. epidermidis (KCTC 1917). The format is cell-based, Staphylococcus epidermidis. Particulars: CLSI broth dilution, MHB, 37 °C, 18 to 24 h. The protocol: as §2
For test [8], the system named is P. aeruginosa (KCTC 1637). The format is cell-based, Pseudomonas aeruginosa. As to conditions: CLSI broth dilution, MHB, 37 °C, 18 to 24 h. The protocol: as §2
Test [9] relates to MDRPA (CCARM 2095). The format is cell-based, Pseudomonas aeruginosa. Particulars: CLSI broth dilution, MHB, 37 °C, 18 to 24 h. The procedure:
as §2

The subject of test [10] is MRSA (CCARM 3090). Format: cell-based, Staphylococcus aureus. As to conditions: CLSI broth dilution, MHB, 37 °C, 18 to 24 h. The protocol: as §2
In test [11] the test system is S. aureus (KCTC 1621). Format: cell-based, Staphylococcus aureus. Particulars: CLSI broth dilution, MHB, 37 °C, 18 to 24 h, no observable turbidity. The procedure:
as §2

One may read the MIC as the lowest concentration found to suppress growth. The low end stands for a more susceptible organism, the high end for a less susceptible organism. As to `CC[C@H](C)[C@H](NC(=O)CN)C(=O)NCC(=O)N[C@@H](C)C(=O)N[C@H](C(=O)N[C@@H](CC(C)C)C(=O)N[C@@H](CCCCN)C(=O)N[C@H](C(=O)N[C@@H](CC(C)C)C(=O)N[C@H](C(=O)N[C@H](C(=O)NCC(=O)NCCCCCC(=O)N1CCC[C@H]1C(=O)N[C@@H](C)C(=O)N[C@@H](CC(C)C)C(=O)N[C@H](C(=O)N[C@@H](CO)C(=O)N[C@@H](Cc1c[nH]c2ccccc12)C(=O)N[C@H](C(=O)N[C@@H](CCCCN)C(=O)N[C@@H](CCCNC(=N)N)C(=O)N[C@@H](CCCCN)C(=O)N[C@@H](CCCNC(=N)N)C(=O)N[C@@H](CCC(N)=O)C(=O)N[C@@H](CCC(N)=O)C(N)=O)[C@@H](C)CC)[C@@H](C)CC)[C@@H](C)O)[C@@H](C)O)C(C)C)C(C)C` [Mel-LX3], the “inhibition of biofilm formation” value in test [1] and in [4] was roughly 90% in each case. Besides, in test [2], the “GM, geometric mean of the MIC” value came to 12.5 µM. Moreover, the minimal inhibitory concentration (MIC) amounted to 16 µM (≈ 45.5 µg/mL) in test [3]; 16 µM (≈ 45.5 µg/mL) in test [5]; 16 µM (≈ 45.5 µg/mL) in [6]; 16 µM (≈ 45.5 µg/mL) in [7]; 16 µM (≈ 45.5 µg/mL) in test [8]; 8 µM (≈ 22.8 µg/mL) in [9]. Also, the MIC in [10] was 4 µM (≈ 11.4 µg/mL); in test [11], 8 µM (≈ 22.8 µg/mL).

As to `CC[C@H](C)[C@H](NC(=O)CN)C(=O)NCC(=O)N[C@@H](C)C(=O)N[C@H](C(=O)NCCCCCC(=O)N[C@@H](CCCCN)C(=O)N[C@H](C(=O)NCCCCCC(=O)N[C@H](C(=O)N[C@H](C(=O)NCC(=O)NCCCCCC(=O)N1CCC[C@H]1C(=O)N[C@@H](C)C(=O)NCCCCCC(=O)N[C@H](C(=O)N[C@@H](CO)C(=O)N[C@@H](Cc1c[nH]c2ccccc12)C(=O)N[C@H](C(=O)N[C@@H](CCCCN)C(=O)N[C@@H](CCCNC(=N)N)C(=O)N[C@@H](CCCCN)C(=O)N[C@@H](CCCNC(=N)N)C(=O)N[C@@H](CCC(N)=O)C(=O)N[C@@H](CCC(N)=O)C(N)=O)[C@@H](C)CC)[C@@H](C)CC)[C@@H](C)O)[C@@H](C)O)C(C)C)C(C)C` [Mel-LX5], in test [2], the “GM, geometric mean of the MIC” value worked out at 192 µM. Also, the MIC in [3] was greater than 128 µM; in [5], greater than 64 µM; in test [6], greater than 64 µM; in test [7], greater than 64 µM; in test [8] it was greater than 64 µM; in test [9], greater than 128 µM. In addition, the MIC in test [10] and in test [11] was greater than 128 µM throughout.

On to `CC[C@H](C)[C@H](NC(=O)CN)C(=O)NCC(=O)N[C@@H](C)C(=O)N[C@H](C(=O)N[C@@H](CC(C)C)C(=O)N[C@@H](CCCCN)C(=O)N[C@H](C(=O)N[C@@H](CC(C)C)C(=O)N[C@H](C(=O)N[C@H](C(=O)NCC(=O)N[C@@H](CC(C)C)C(=O)N1CCC[C@H]1C(=O)N[C@@H](C)C(=O)N[C@@H](CC(C)C)C(=O)N[C@H](C(=O)N[C@@H](CO)C(=O)N[C@@H](Cc1c[nH]c2ccccc12)C(=O)N[C@H](C(=O)N[C@@H](CCCCN)C(=O)N[C@@H](CCCNC(=N)N)C(=O)N[C@@H](CCCCN)C(=O)N[C@@H](CCCNC(=N)N)C(=O)N[C@@H](CCC(N)=O)C(=O)N[C@@H](CCC(N)=O)C(N)=O)[C@@H](C)CC)[C@@H](C)CC)[C@@H](C)O)[C@@H](C)O)C(C)C)C(C)C` [Melittin], for which the MIC in test [3] came to 8 µM (≈ 22.8 µg/mL); in test [5], 16 µM (≈ 45.5 µg/mL); in [6] it was 16 µM (≈ 45.5 µg/mL); in [8] it was 16 µM (≈ 45.5 µg/mL); in test [9], 8 µM (≈ 22.8 µg/mL); in test [10], 4 µM (≈ 11.4 µg/mL). This molecule also had an MIC in test [11] of 8 µM (≈ 22.8 µg/mL).

`CC[C@H](C)[C@H](NC(=O)CN)C(=O)NCC(=O)N[C@@H](C)C(=O)N[C@H](C(=O)N[C@@H](CC(C)C)C(=O)N[C@@H](CCCCN)C(=O)N[C@H](C(=O)N[C@@H](CC(C)C)C(=O)N[C@H](C(=O)N[C@H](C(=O)NCC(=O)N[C@@H](CC(C)C)C(=O)N1CCC[C@H]1C(=O)N[C@@H](C)C(=O)NCCCCCC(=O)N[C@H](C(=O)N[C@@H](CO)C(=O)N[C@@H](Cc1c[nH]c2ccccc12)C(=O)N[C@H](C(=O)N[C@@H](CCCCN)C(=O)N[C@@H](CCCNC(=N)N)C(=O)N[C@@H](CCCCN)C(=O)N[C@@H](CCCNC(=N)N)C(=O)N[C@@H](CCC(N)=O)C(=O)N[C@@H](CCC(N)=O)C(N)=O)[C@@H](C)CC)[C@@H](C)CC)[C@@H](C)O)[C@@H](C)O)C(C)C)C(C)C` [Mel-LX4]: the “GM, geometric mean of the MIC” value in test [2] turned out to be 60 µM. Also, the MIC in test [3] is 32 µM (≈ 91.1 µg/mL); in test [5], 32 µM (≈ 91.1 µg/mL); in [6], 32 µM (≈ 91.1 µg/mL); in [7] it was 32 µM (≈ 91.1 µg/mL); in test [8], 64 µM (≈ 182 µg/mL); in [9], 128 µM (≈ 364 µg/mL). Moreover, the values for the minimal inhibitory concentration (MIC) in test [10] and in [11] were 128 µM (≈ 364 µg/mL) and 32 µM (≈ 91.1 µg/mL), respectively.

Turning to `CC[C@H](C)[C@H](NC(=O)CN)C(=O)NCC(=O)N[C@@H](C)C(=O)N[C@H](C(=O)N[C@@H](CC(C)C)C(=O)N[C@@H](CCCCN)C(=O)N[C@H](C(=O)NCCCCCC(=O)N[C@H](C(=O)N[C@H](C(=O)NCC(=O)N[C@@H](CC(C)C)C(=O)N1CCC[C@H]1C(=O)N[C@@H](C)C(=O)N[C@@H](CC(C)C)C(=O)N[C@H](C(=O)N[C@@H](CO)C(=O)N[C@@H](Cc1c[nH]c2ccccc12)C(=O)N[C@H](C(=O)N[C@@H](CCCCN)C(=O)N[C@@H](CCCNC(=N)N)C(=O)N[C@@H](CCCCN)C(=O)N[C@@H](CCCNC(=N)N)C(=O)N[C@@H](CCC(N)=O)C(=O)N[C@@H](CCC(N)=O)C(N)=O)[C@@H](C)CC)[C@@H](C)CC)[C@@H](C)O)[C@@H](C)O)C(C)C)C(C)C` [Mel-LX2], the “GM, geometric mean of the MIC” value in test [2] came out at 56 µM. In addition, the minimal inhibitory concentration (MIC) in test [3] worked out at 32 µM (≈ 91.1 µg/mL); in test [5] it was 16 µM (≈ 45.5 µg/mL); in [6], 16 µM (≈ 45.5 µg/mL); in test [7], 32 µM (≈ 91.1 µg/mL); in test [8], 64 µM (≈ 182 µg/mL); in test [9], 128 µM (≈ 364 µg/mL). The minimum inhibitory concentration (MIC) in test [10] was found to be 128 µM (≈ 364 µg/mL); in test [11] it was 32 µM (≈ 91.1 µg/mL).

In the case of `CC[C@H](C)[C@H](NC(=O)CN)C(=O)NCC(=O)N[C@@H](C)C(=O)N[C@H](C(=O)NCCCCCC(=O)N[C@@H](CCCCN)C(=O)N[C@H](C(=O)N[C@@H](CC(C)C)C(=O)N[C@H](C(=O)N[C@H](C(=O)NCC(=O)N[C@@H](CC(C)C)C(=O)N1CCC[C@H]1C(=O)N[C@@H](C)C(=O)N[C@@H](CC(C)C)C(=O)N[C@H](C(=O)N[C@@H](CO)C(=O)N[C@@H](Cc1c[nH]c2ccccc12)C(=O)N[C@H](C(=O)N[C@@H](CCCCN)C(=O)N[C@@H](CCCNC(=N)N)C(=O)N[C@@H](CCCCN)C(=O)N[C@@H](CCCNC(=N)N)C(=O)N[C@@H](CCC(N)=O)C(=O)N[C@@H](CCC(N)=O)C(N)=O)[C@@H](C)CC)[C@@H](C)CC)[C@@H](C)O)[C@@H](C)O)C(C)C)C(C)C` [Mel-LX1], the “GM, geometric mean of the MIC” value in test [2] was 98 µM. The minimal inhibitory concentration (MIC) was 64 µM (≈ 182 µg/mL) in test [3]; 16 µM (≈ 45.5 µg/mL) in [5]; 32 µM (≈ 91.1 µg/mL) in [6]; 32 µM (≈ 91.1 µg/mL) in test [7]; 64 µM (≈ 182 µg/mL) in [8]; greater than 128 µM in [9]. Further, the minimal inhibitory concentration (MIC) is greater than 128 µM in test [10] and 64 µM (≈ 182 µg/mL) in test [11].

The values above are taken from article PMC11201590, “Enhancing Selective Antimicrobial and Antibiofilm Activities of Melittin through 6-Aminohexanoic Acid Substitution” (Biomolecules, 2024).
